These are literature values, as cited in patent publication US20110301169A1, “Therapies for Treating Cancer Using Combinations of COX-2 Inhibitors and Antimetabolites” (priority 2007, published 2011).

This series concerns HER2-positive breast cancer cell lines (BT474 and SKBR3). The note with it: following trastuzumab exposure, cited from earlier work.

Read-outs that look alike come from different tables or passages of the source.

Take “trastuzumab: recombinant DNA-derived humanized monoclonal antibody (IgG1 kappa) that selectively binds the extracellular domain of HER2”: for the setting “resistant cells”, the G0/G1 arrest is listed as 68% and the “cells in S-phase” value is given as 14%. The G0/G1 arrest (sensitive cells) is recorded as 84%.
